## Yeast mating assay 2: variants of the scFv Ab-95

The measurements come from Engelhart et al. 2022 (doi:10.1038/s41597-022-01779-4) through the FLAb antibody collection.

Target peptide (SARS-CoV-2 spike, HR2 region): PDVDLGDISGINAS

The variants keep the heavy chain, the linker and the frameworks of Ab-95 (scFv order VH, the linker GGGGSGGGGSGGGGS, VL).
VH: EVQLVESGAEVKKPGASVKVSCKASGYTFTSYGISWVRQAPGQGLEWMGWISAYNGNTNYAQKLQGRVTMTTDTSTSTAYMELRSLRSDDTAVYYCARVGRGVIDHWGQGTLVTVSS
VL: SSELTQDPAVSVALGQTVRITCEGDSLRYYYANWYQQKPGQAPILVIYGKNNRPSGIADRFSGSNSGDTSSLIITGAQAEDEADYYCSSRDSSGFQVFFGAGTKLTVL

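The parent was found by panning a naive human phage display library on the peptide. In library AAYL52, one, two or three CDR residues were substituted; doubles and triples were drawn at random. In AlphaSeq, yeast of one mating type display the scFv and yeast of the other type display the target. Binding brings cells together so that they mate, and sequencing counts the barcode pairs among the diploids. A regression on co-assayed BCL2-family reference pairs converts the normalised counts of each replicate to an apparent Kd. Each pool was mated in three replicate cultures.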

Each variant is given by its three light chain CDRs, as the data file delimits them; those of the parent are EGDSLRYYYAN, GKNNRPS, SSRDSSGFQVF. All variants listed here change S93 of the VL, counted from its first residue. The Kd shown is the geometric mean over detected replicates; a lower Kd is a better binder. Where no diploid with the target was found in any replicate, the entry reads "nd": below detection, most likely a poor binder, though not proof of it. Entries are sorted by rising average, undetected variants last.

- EGDCLRYYYAN / GKNNRPS / SSRDLGGFQVF = 16 nM (3 of 3 replicates; controls 1 of 9)
- EGDSLRYRYAN / GKNERPS / SSRDSNGFQVF = 33 nM (3 of 3 replicates; controls 0 of 9)
- EGDSLRSYYAN / GKNNRPS / SSRDSLCFQVF = 57 nM (3 of 3 replicates; controls 5 of 9)
- EGDSLRYYYAN / GGNNRPS / SSRDSPGFQVS = 60 nM (3 of 3 replicates; controls 4 of 9)
- EGDSLRYYYAN / GGNNRPS / SSPDSLGFQVF = 71 nM (3 of 3 replicates; controls 2 of 9)
- EGDSLRYYYAN / GKNNRPS / SSRDFWGFQVF = 100 nM (3 of 3 replicates; controls 5 of 9)
- EGDSLRYYYAN / GKNNRPS / SSVDSWFFQVF = 160 nM (3 of 3 replicates; controls 1 of 9)
- EGDSLRYYYAN / GQNNRPS / SSRDIAGFQVF = 350 nM (3 of 3 replicates; controls 2 of 9)
- EGDSLRYYYAN / GKNNRPS / SSADSDGFQPF = 440 nM (3 of 3 replicates; controls 5 of 9)
- EGDSLRYYYAN / GKNNNPQ / SSRDSFGFQVF = 460 nM (2 of 3 replicates; controls 1 of 9)
- EGDSLRYYYAN / GKNNRPS / SSDDSLPFQVF = 460 nM (3 of 3 replicates; controls 1 of 9)
- EGHSLRYYYAN / GKNNRPS / SSRDSDRFQVF = 480 nM (2 of 3 replicates; controls 1 of 9)
- MGDSLRYYYAN / GKNNRPS / SWRDSAGFQVF = 510 nM (3 of 3 replicates; controls 3 of 9)
- EGDSLRYYYAN / GVNNRPS / SSMDSPGFQVF = 780 nM (3 of 3 replicates; controls 5 of 9)
- EGDSLRYYYAN / GKNNRPS / SSRDSFGFQVF = 890 nM (3 of 3 replicates; controls 6 of 9)
- EGDSLRMYYAN / GKNNRPS / SHRDSTGFQVF = 950 nM (3 of 3 replicates; controls 3 of 9)
- EGDSLRYYYAN / GYNNRPS / SSRDSTQFQVF = 1.1 µM (3 of 3 replicates; controls 2 of 9)
- EGDSLRYYYAN / GKNNRPS / SSRDHAGKQVF = 1.1 µM (2 of 3 replicates; controls 2 of 9)
- EGDCLRYYYAN / TKNNRPS / SSRDSPGFQVF = 1.1 µM (1 of 3 replicates; controls 5 of 9)
- EGDSLRYYYEN / GKNNRPS / SSGDSMGFQVF = 1.2 µM (1 of 3 replicates; controls 0 of 9)
- EGDSLRYQTAN / GKNNRPS / SSRDSCGFQVF = 1.5 µM (3 of 3 replicates; controls 1 of 9)
- EGDSLRVYYAN / GKNNRPS / SSRDLPGFQVF = 1.6 µM (2 of 3 replicates; controls 3 of 9)
- EGDSLRTYYAN / GKNDRPS / SSRDSWGFQVF = 2.0 µM (3 of 3 replicates; controls 6 of 9)
- EGDSLRYYYAN / GKNTRPS / SSGDSGGFQVF = 2.1 µM (3 of 3 replicates; controls 4 of 9)
- EGDSLRPYYAN / GKNNRPS / SSRDSEGFQVQ = 2.7 µM (3 of 3 replicates; controls 6 of 9)
- EGDSLRYYYAN / GKNHRPS / SSRDRWGFQVF = 2.8 µM (3 of 3 replicates; controls 3 of 9)
- EGDSLQYYYAN / GFNNRPS / SSRDSRGFQVF = 2.9 µM (2 of 3 replicates; controls 2 of 9)
- EGDSLRYYYAN / GKNNRPS / SSCASDGFQVF = 3.3 µM (3 of 3 replicates; controls 1 of 9)
- EGDSIRYYYAN / GKNNRPS / SSRDSPPFQVF = 4.3 µM (3 of 3 replicates; controls 4 of 9)
- EMVSLRYYYAN / GKNNRPS / SSRDSQGFQVF = 12 µM (3 of 3 replicates; controls 2 of 9)
- EGDLLRYYYAN / SKNNRPS / SSRDSLGFQVF = 15 µM (1 of 3 replicates; controls 4 of 9)
- EGDSAQYYYAN / GKNNRPS / SSRDSDGFQVF = 17 µM (1 of 3 replicates; controls 5 of 9)
- EGFILRYYYAN / GKNNRPS / SSRDSAGFQVF = 18 µM (1 of 3 replicates; controls 1 of 9)
- EGDSLRYYYAM / GKNNRPS / SSRDDVGFQVF = 28 µM (2 of 3 replicates; controls 4 of 9)
- EGDSLRYYYAN / GPNNRPS / SSRDSEGFLVF = 29 µM (1 of 3 replicates; controls 1 of 9)
- EGDSLRYYYAN / GKNNNIS / SSRDSWGFQVF = 54 µM (1 of 3 replicates; controls 0 of 9)
- EWDSLRYYYAN / GKNNRPS / SSRDSPGFQVG = 57 µM (2 of 3 replicates; controls 2 of 9)
- EGDSLRYYYAP / GKNNRPS / SSRDLFGFQVF = 72 µM (1 of 3 replicates; controls 1 of 9)
- EGDSLRYYYEN / GKNNRPS / SSRDSAGLQVF = 77 µM (1 of 3 replicates; controls 3 of 9)
- EGFSLRYYYAD / GKNNRPS / SSRDSPGFQVF = 120 µM (3 of 3 replicates; controls 6 of 9)
- EGDSLRYYYDN / GKNNRPS / SSRDSNGFQVF = 350 µM (1 of 3 replicates; controls 2 of 9)
- EGDSLRIYYAN / GKNNRPS / SSRDSYGFQVF = nd (0 of 3 replicates; controls 0 of 9)
- EGDSLRYYYAN / GKNNFPS / SSRDSRGNQVF = nd (0 of 3 replicates; controls 3 of 9)
- EGDSLRYYYDN / GKNNRPS / VSRDSRGFQVF = nd (0 of 3 replicates; controls 0 of 9)
- EGDSLRCYYAW / GKNNRPS / SSRDSVGFQVF = nd (0 of 3 replicates; controls 0 of 9)
- EGDSLRYYYAN / GKDNRPS / SSRDSPGFQPF = nd (0 of 3 replicates; controls 2 of 9)
- EGDSERYYYAN / GKNCRPS / SSRDSPGFQVF = nd (0 of 3 replicates; controls 1 of 9)

Excerpt, the final 5 entries:

CDR-L1,CDR-L2,CDR-L3,Kd (apparent),detected,signal with controls
EGDSLRYYYAN,GKNNFPS,SSRDSRGNQVF,nd,0/3,3/9
EGDSLRYYYDN,GKNNRPS,VSRDSRGFQVF,nd,0/3,0/9
EGDSLRCYYAW,GKNNRPS,SSRDSVGFQVF,nd,0/3,0/9
EGDSLRYYYAN,GKDNRPS,SSRDSPGFQPF,nd,0/3,2/9
EGDSERYYYAN,GKNCRPS,SSRDSPGFQVF,nd,0/3,1/9

Parent in this assay: reference entry 200 nM, copy in this library 180 nM. Background: pairings of library AAYL52 with three empty control strains gave a value in 28% of cases (median 8.2 µM, 5th percentile 800 nM). Values in that range, when seen in few replicates, are hard to tell from nonspecific mating. For each scFv, signals with the empty controls are counted beside the result.